Screens as filed in PubChem BioAssay.
BRCA1 expr act: activators of BRCA1 expression; MCF7-BRCA1-FFLuc reporter, luminescence, 48 h; response scale: scaled: vehicle 0%, 10 µM genistein 100%; Potency, µM (top dose mostly 46.1 µM), without a hit: top-dose activation, usual class: activators; 380,000 tested, 1.1% active; further: potency means the concentration at half of the fitted maximal effect; nearly all actives have a fitted effect of over 80% in size
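Activators of BRCA1 expression were detected as increased firefly luciferase luminescence in engineered MCF7 cells after 48 h compound incubation. Signals were scaled to genistein 10 microM as full activation.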
Anesthetic bind: candidate novel general anesthetic via apoferritin binding. P02791. apoferritin/1-aminoanthracene competitive binding, fluorescence. Potency, µM (doses to about 77.5 µM), for the others: top-dose activity change, negative = displacement, actives largely listed as inhibitors. 350,000 tested, 0.074% active. AID 485281; further: potency means the concentration at half of the fitted maximal effect; on the % scale 0 is the no-effect control and ±100 the full control effect; nearly all actives have a fitted effect of over 20% in size
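Read-out: endpoint 1-AMA fluorescence, excitation 380 nm and emission 535 nm, after compounds sit 10 min at room temperature with 10 uM horse-spleen apoferritin in 50% saturated 1-AMA/PBS. Values come from four-parameter Hill fits.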
p53 reactivation: re-activators of mutant p53; AID 504706; H1299 p53-A138V BP100-luciferase reporter, luminescence, 24 h; 320,000 tested, 0.063% active; Potency, µM (titrated, usually from 92.2 µM), without a hit: at the highest dose activity change, positive = activation, hits mostly activators; further: potency means the concentration at half of the fitted maximal effect; % of control where 0% means no effect; nearly all actives have a fitted effect of over 45% in size
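p53-null H1299 cells stably carrying temperature-sensitive p53-A138V and a BP100-luciferase reporter were pinned with compounds (4-point, 1:5 series) and held 24 hrs at 37 deg C. Luminescence was read 10 min after detection reagent.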
miR-21 reporter: miR-21 reporter, rising signal | 340,000 tested, under 10 active | AID 2288 | HeLa miR-21 FLuc reporter, luciferase, 48 h | Potency, µM (titrated, usually from 38.3 µM), for inactives: at the highest dose reporter change, positive = more light; active = well fitted rising curve with a large enough effect; inconclusive = small, poorly fitted or top-dose-only effect; inactive = no such curve, though single readings can be large or run the other way;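 further: % of control where 0% means no effect; miR-21 action dims this reporter so a rising signal means less miR-21 action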
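Compounds were titrated across several concentrations (up to approximately 40 uM) and incubated 48 hours with HeLa miR-21-FLuc reporter cells (miR-21 target sequence downstream of FLuc, endogenous miR-21). Readout was firefly luciferase luminescence after lytic detection reagent.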
* = called active by the depositor; [ ] = dose if it differs, or a comment. A selection: hits, their analogues and other compounds. The true share with any hit is near 1.1%. Unless noted, the call rests on the fitted dose curve; in most records, active means well fitted curve in the direction sought with a large enough effect; inconclusive means small, poorly fitted or top-dose-only effect, or another doubt; inactive means no such curve, though single readings can be large; an effect the other way counts as inactive or inconclusive.

`CC(=O)Cc1nsc(Nc2ccc3c(c2)OCCO3)n1` gave BRCA1 expr act 94%, Anesthetic bind inconclusive, p53 reactivation 26% and miR-21 reporter -39%.
`CC(=O)Cc1nsc(Nc2ccc(F)cc2)n1` gave BRCA1 expr act inconclusive, Anesthetic bind -5%, p53 reactivation 22% and miR-21 reporter -31%.
For CCOC(=O)c1ccc(N=NN(C)C)cc1 the results were BRCA1 expr act 13µM*, Anesthetic bind -6%, p53 reactivation 19% and miR-21 reporter -55%.
Screening CCOC(=O)c1ccc(N)cc1 returned BRCA1 expr act -12%, Anesthetic bind -4%[29.3 µM] and p53 reactivation 10%.
Screening Cc1cccn2cc(-c3ccccc3)nc12 returned BRCA1 expr act 2µM*, Anesthetic bind -15%, p53 reactivation inconclusive and miR-21 reporter -19%.
`COc1ccc(-c2cn3ccccc3n2)cc1` gave BRCA1 expr act 13%, Anesthetic bind -1%, p53 reactivation 2% and miR-21 reporter 7%.
Screening Cc1cccn2cc(-c3ccc(F)cc3)nc12 returned BRCA1 expr act 100%, Anesthetic bind -9% and miR-21 reporter -25%.
Screening Cc1cccn2cc(CNc3ccccc3)nc12 returned BRCA1 expr act 14µM*, Anesthetic bind 2%, p53 reactivation inconclusive and miR-21 reporter -46%.
`CCCS(=O)(=O)NCc1cn2cccc(C)c2n1` gave BRCA1 expr act 20%, Anesthetic bind 4%, p53 reactivation 10% and miR-21 reporter -4%.
Screening COc1ccc(-c2cn3cccc(C)c3n2)cc1Br returned BRCA1 expr act 3.5µM*, Anesthetic bind -3%, p53 reactivation inconclusive and miR-21 reporter -45%.
Screening COc1ccc(-c2cn3ccc4ccccc4c3n2)cc1 returned BRCA1 expr act inconclusive, Anesthetic bind -15%, p53 reactivation 28µM* and miR-21 reporter -50%.
COc1ccc(-c2cc(C(F)(F)F)nc(-n3cc(Br)cn3)n2)cc1 was read as BRCA1 expr act -1%, Anesthetic bind -12%, p53 reactivation -4% and miR-21 reporter 0%.
Screening COc1ccc(-c2cc(C(F)(F)F)nc(-n3cncn3)n2)cc1 returned BRCA1 expr act -4%, Anesthetic bind 32µM*, p53 reactivation -2% and miR-21 reporter -11%.
`Cc1ccc2nc(SCc3nc4ccccc4c(=O)[nH]3)[nH]c2c1` gave BRCA1 expr act 4µM*, Anesthetic bind -10%, p53 reactivation 0% and miR-21 reporter -51%.
Screening COC(=O)c1sc2nc(CSc3nc4ccc(C)cc4[nH]3)[nH]c(=O)c2c1C returned BRCA1 expr act -53%, Anesthetic bind -19%, p53 reactivation -1% and miR-21 reporter -2%.
`COc1ccc(CNC(=O)COC(=O)c2ccc(C)c(S(=O)(=O)N3CCOCC3)c2)cc1` gave BRCA1 expr act 6% and p53 reactivation -1%.
O=c1cc(-c2ccc(F)cc2)nc(SCc2nc(-c3cccc(C(F)(F)F)c3)no2)[nH]1 was read as Anesthetic bind 33% and miR-21 reporter 2%.
`COc1ccc(-c2nc3sc(CCNC(=O)c4ccccc4C)c(C)n3n2)cc1` gave BRCA1 expr act 29%, Anesthetic bind 4% and miR-21 reporter 0%.
For COc1ccc(-c2nc3sc(CCNC(=O)c4cccc(C(F)(F)F)c4)c(C)n3n2)cc1 the results were BRCA1 expr act 6.3µM*, Anesthetic bind 4% and miR-21 reporter -45%.
For Cc1c(C(=O)N2CCc3ccccc32)oc2c1C(=O)CC(C)(C)C2 the results were BRCA1 expr act 13µM*, Anesthetic bind -2%, p53 reactivation inconclusive and miR-21 reporter -60%.
c1ccc(CSc2n[nH]c(-c3ccco3)n2)cc1 was read as BRCA1 expr act 11µM*, Anesthetic bind -21%, p53 reactivation inconclusive and miR-21 reporter -43%.
For O=C(Nc1ccc(N2CCCCC2)cc1)c1cccnc1Cl the results were BRCA1 expr act 10µM*, Anesthetic bind inconclusive, p53 reactivation 17% and miR-21 reporter -47%.
For NC(=O)c1ccccc1NC(=O)CC12CC3CC(CC(C3)C1)C2 the results were BRCA1 expr act -1%, Anesthetic bind inconclusive and miR-21 reporter 6%.
Screening Cc1ccccc1C(=O)NC(=O)Nc1ccc(-n2nc(C(F)(F)F)cc2C(F)(F)F)cc1 returned BRCA1 expr act 16%, Anesthetic bind -1% and miR-21 reporter -1%.

The final 4 entries of the part above lead into the next:
c1ccc(CSc2n[nH]c(-c3ccco3)n2)cc1 was read as BRCA1 expr act 11µM*, Anesthetic bind -21%, p53 reactivation inconclusive and miR-21 reporter -43%.
For O=C(Nc1ccc(N2CCCCC2)cc1)c1cccnc1Cl the results were BRCA1 expr act 10µM*, Anesthetic bind inconclusive, p53 reactivation 17% and miR-21 reporter -47%.
For NC(=O)c1ccccc1NC(=O)CC12CC3CC(CC(C3)C1)C2 the results were BRCA1 expr act -1%, Anesthetic bind inconclusive and miR-21 reporter 6%.
Screening Cc1ccccc1C(=O)NC(=O)Nc1ccc(-n2nc(C(F)(F)F)cc2C(F)(F)F)cc1 returned BRCA1 expr act 16%, Anesthetic bind -1% and miR-21 reporter -1%.
Screening O=C(COc1ccccc1Cl)Nc1ccc2c(c1)OCCO2 returned BRCA1 expr act 0%, Anesthetic bind -19%, p53 reactivation 26% and miR-21 reporter -55%.
O=C(COc1ccc(Br)cc1Cl)NC(=O)Nc1ccc2c(c1)OCCO2 was read as BRCA1 expr act 11µM*, Anesthetic bind -10%, p53 reactivation 4% and miR-21 reporter -35%.
`CC1CC(C)CN(CC(=O)Nc2ccc3c(c2)OCCO3)C1` (stereo unspecified) gave BRCA1 expr act 13µM*, Anesthetic bind -9%, p53 reactivation 21% and miR-21 reporter -54%.
NC(=O)c1ccccc1OCC(=O)Nc1ccc2c(c1)OCCO2 was read as BRCA1 expr act 3.5µM* and p53 reactivation 22%.
For O=C(CN1C(=O)NC2(CCCCC2)C1=O)Nc1ccc2c(c1)OCCCO2 the results were BRCA1 expr act 5µM*.
CC(=O)Nc1ccc(S(=O)(=O)N2CCN(c3ccc(C)c(C)c3)CC2)cc1 was read as BRCA1 expr act 0%, Anesthetic bind inconclusive and miR-21 reporter -5%.
For Cc1cn([C@H]2C[C@H](O)[C@@H](CNC/C=C/c3ccccc3[N+](=O)[O-])O2)c(=O)[nH]c1=O the results were BRCA1 expr act 3%.
For CC1CC(C)(C)NC(=S)N1CCCC(=O)Nc1ccc2c(c1)OCCO2 (stereo unspecified) the results were BRCA1 expr act 13µM*, Anesthetic bind -9%, p53 reactivation 0% and miR-21 reporter -47%.
`O=C(CCSCc1ccccc1)Nc1ccc2c(c1)OCCO2` gave BRCA1 expr act 37%, Anesthetic bind inconclusive, p53 reactivation 12% and miR-21 reporter -32%.
For O=C(CCc1ccccc1)Nc1ccc2c(c1)OCCO2 the results were BRCA1 expr act 11µM*, Anesthetic bind inconclusive, p53 reactivation inconclusive and miR-21 reporter -27%.
O=C(Nc1ccc2c(c1)OCCO2)NC12CC3CC(CC(C3)C1)C2 was read as BRCA1 expr act 3.5µM*, Anesthetic bind inconclusive, p53 reactivation inconclusive and miR-21 reporter -43%.
Screening Cc1ccc(NC(=O)CCCN2C(=S)NC(C)(C)CC2C)cc1 (stereo unspecified) returned BRCA1 expr act -1%, Anesthetic bind -3%, p53 reactivation inconclusive and miR-21 reporter -3%.
Screening O=C(Nc1ccc2c(c1)OCCO2)Nc1ccc2c(c1)OCO2 returned BRCA1 expr act 1%, Anesthetic bind -2%, p53 reactivation -8% and miR-21 reporter 11%.
For O=C(Nc1ccc2c(c1)OCCO2)N1CCN(Cc2ccccc2)CC1 the results were BRCA1 expr act 13µM*, Anesthetic bind -4%, p53 reactivation 11% and miR-21 reporter -44%.
